“And” between values parts separate entries of the source, which are not always exact repeats. Equal values may be shown once.

Chains of the proteins cited; added tags and fusions are not shown.
UniProt P35372, whole entry, looked up: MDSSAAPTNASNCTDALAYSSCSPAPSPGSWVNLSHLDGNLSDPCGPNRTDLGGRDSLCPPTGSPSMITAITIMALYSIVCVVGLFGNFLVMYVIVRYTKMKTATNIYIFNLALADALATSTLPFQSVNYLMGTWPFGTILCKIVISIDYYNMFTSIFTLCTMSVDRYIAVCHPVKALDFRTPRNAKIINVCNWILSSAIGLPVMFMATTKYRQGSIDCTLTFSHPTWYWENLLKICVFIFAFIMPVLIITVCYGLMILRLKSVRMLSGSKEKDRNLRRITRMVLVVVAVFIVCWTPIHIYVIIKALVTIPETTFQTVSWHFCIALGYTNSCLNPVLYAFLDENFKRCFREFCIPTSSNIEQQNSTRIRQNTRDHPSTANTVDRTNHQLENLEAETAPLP

The target in this experiment is Mu-type opioid receptor (Homo sapiens, UniProt P35372). The experiment is described as follows: Binding Assay: The receptor affinity for the human mu-opiate receptor was determined in a homogeneous batch in microtitre plates. For this, dilution series of the particular spirocyclic cyclohexane derivative to be tested were incubated in a total volume of 250 ul for 90 minutes at room temperature with a receptor membrane preparation (15-40 ug protein per 250 ul incubation batch) of CHO-K1 cells,.

Regarding `CN(C)C1(c2ccccc2)CCC2(CC1)OCCc1c2[nH]c2ccc(Br)cc12` (configuration not stated), the Ki was 19 nM. The figure for `Cc1ccc2[nH]c3c(c2c1)CCNC31CCC(c2ccccc2)(N(C)C)CC1` (configuration not stated) is 15 nM; for `CN(C)C1(c2ccc(F)cc2)CCC2(CC1)OCCc1c2[nH]c2ccccc12` (configuration not stated) it is 7.2 nM. As for `CC(=O)N1CCc2c([nH]c3ccccc23)C12CCC(c1ccccc1)(N(C)C)CC2` (single isomer, unassigned), the figure is 4.4 nM and 2.2 nM; as for `CC1Cc2c([nH]c3ccc(Br)cc23)C2(CCC(c3ccccc3)(N(C)C)CC2)O1` (configuration not stated), 14 nM; as for `CC1Cc2c([nH]c3ccc(F)cc23)C2(CCC(c3ccccc3)(N(C)C)CC2)O1` (configuration not stated), 61 nM. The figure for `CN(C)C1(c2ccc(F)cc2)CCC2(CC1)c1sc3ccccc3c1CC[S+]2[O-]` (configuration not stated) is 58 nM.

The values above are taken from ChEMBL document CHEMBL3886217, “Process for preparing spirocyclic cyclohexane compounds, compositions containing such compounds and method of using such compounds” (2015).
